Measurements published in US20240150322A1, “CDK9 Inhibitors” (Biolexis Therapeutics, Inc., priority 2022, published 2024).

Test system: T1, CLK
T1 construct: fused on or other part: vendor's panel tag (DNA tag or T7 phage of the KINOMEscan format)
Assay: scanMAX panel and Kd follow-up
Format: binding
Settings: 1 μM

Structure (SMILES): CC(C)c1c2cc(-c3ccnc(N[C@H]4CC[C@H](N)C4)n3)ccc2nn1C [Compound I-2, (1S,3S)-[3-[4-(3-isopropyl-2-methylindazol-5-yl)pyrimidin-2-yl]aminocyclopentan-1-yl]-1,3-diamine]
- % of control activity: 0-1%
